Values quoted from earlier work as cited in patent publication US12685983B2, “Benefit agent delivery system” (ITC Limited, priority 2020, dated 2026).

Settings: cited from earlier work

For CCN(CC)CC [Triethyl amine], the LogP value is listed as 1.64.
